The experiment addresses T1, dipeptidyl peptidase-IV (DPP-IV) from porcine kidney (Sus scrofa, UniProt P22411).
T1 construct: purchased Sigma Aldrich Inc. (St. Louis, MO. USA); host or cells: porcine kidney (tissue-derived enzyme)
Kind of experiment: Dipeptidyl peptidase-IV (DPP-IV) inhibitory assay (GP-p-NA substrate). The format is biochemical. The source says: Folin–Ciocalteu reagent was bought from Merck (Darmstadt, Germany). Fetal bovine serum (FBS), penicillin-streptomycin, Dulbecco’s Modified Eagle Medium, high glucose (DMEM, high glucose), Roswell Park Memorial Institute (RPMI) 1640 medium, trypsin-EDTA, trypan blue dyes, and 3-(4,5-dimethylthiazol-2-yl)-2,5 diphenyltetrazolium bromide (MTT) were obtained from Thermo Fisher Scientific (Waltham, CA, USA). Ethanol, methanol, hexane, dichloromethane, ethyl acetate, and acetone (as analytical grades) were purchased from Labscan Asia Co., Bangkok, Thailand.
The DPP-IV inhibition activities of crude extract, partitioned fractions, and isolated pure compounds were investigated, following the procedure of Van et al. (2009) and Al-Masri et al. (2009), with some modifications. Concisely, 40 µL of each sample diluted in 50 mM Tris-HCl buffer, pH 8.0 (at final concentration 50 ug/mL), was pre-incubated with 30 µL of 0.05 U/mL of DPP-IV enzyme at 37 °C. […] Then, the reaction was terminated with 30 µL of 25% acetic acid, and the absorbance at 405 nm was suddenly measured by a microplate reader (DTX880 Multimode Detector, Beckman Coulter®, Wein, Austria). The percentage of inhibition was calculated, following the formula: [(Acontrol − Asample)/Acontrol] × 100, where Acontrol and Asample were the absorbances of reaction with and without sample, respectively. […]

Amino acid sequences for entries named in this document (tags omitted). A change or cut given only in a name is not applied to a line headed by its entry.
UniProt P22411: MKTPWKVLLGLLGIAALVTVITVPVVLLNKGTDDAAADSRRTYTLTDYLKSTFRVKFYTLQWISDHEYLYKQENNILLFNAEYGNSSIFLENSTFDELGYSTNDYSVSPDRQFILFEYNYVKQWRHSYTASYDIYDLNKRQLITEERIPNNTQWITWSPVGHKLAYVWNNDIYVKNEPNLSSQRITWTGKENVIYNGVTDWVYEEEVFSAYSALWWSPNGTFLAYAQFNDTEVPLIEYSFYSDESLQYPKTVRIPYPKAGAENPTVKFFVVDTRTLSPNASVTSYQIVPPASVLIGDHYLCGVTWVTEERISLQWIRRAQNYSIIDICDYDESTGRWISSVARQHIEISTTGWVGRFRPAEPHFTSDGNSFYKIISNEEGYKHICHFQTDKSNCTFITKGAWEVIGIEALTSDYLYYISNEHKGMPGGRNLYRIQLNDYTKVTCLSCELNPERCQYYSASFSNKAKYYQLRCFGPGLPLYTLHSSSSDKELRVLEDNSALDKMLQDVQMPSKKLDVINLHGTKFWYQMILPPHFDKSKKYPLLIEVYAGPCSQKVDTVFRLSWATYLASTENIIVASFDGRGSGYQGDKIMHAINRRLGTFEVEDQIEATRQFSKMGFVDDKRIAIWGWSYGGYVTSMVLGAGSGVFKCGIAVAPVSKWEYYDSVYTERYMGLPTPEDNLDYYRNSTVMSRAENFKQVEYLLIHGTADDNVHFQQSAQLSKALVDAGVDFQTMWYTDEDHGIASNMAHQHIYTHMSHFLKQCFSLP

From paper PMC9032570, “Flavonoids and Phenols, the Potential Anti-Diabetic Compounds from Bauhinia strychnifolia Craib. Stem” (Molecules, 2022) come the findings set out here.

Where two headings read alike, the source gives them in different places.

Broadly, the IC50 is the point on the concentration scale where inhibition reaches its midpoint. `CC[C@H](C)[C@H](N)C(=O)N1CCC[C@H]1C(=O)N[C@H](C(=O)O)[C@@H](C)CC` [Diprotin A, diprotin A, reference compound]: the IC50 is 3.34 µM. Further, the IC50 (molar value, in parentheses in Table 3) is 3.26 µM.
